We go through one compound from patent US20230038929A1, “Fused Tricyclic Heterocyclic Compounds and Uses Thereof” (Verge Analytics, Inc., priority 2019, published 2023).

Sequences of proteins named here, by UniProt entry; tags and fusion partners are left off. A change or cut given only in a name is not applied to a line headed by its entry.
UniProt P48736: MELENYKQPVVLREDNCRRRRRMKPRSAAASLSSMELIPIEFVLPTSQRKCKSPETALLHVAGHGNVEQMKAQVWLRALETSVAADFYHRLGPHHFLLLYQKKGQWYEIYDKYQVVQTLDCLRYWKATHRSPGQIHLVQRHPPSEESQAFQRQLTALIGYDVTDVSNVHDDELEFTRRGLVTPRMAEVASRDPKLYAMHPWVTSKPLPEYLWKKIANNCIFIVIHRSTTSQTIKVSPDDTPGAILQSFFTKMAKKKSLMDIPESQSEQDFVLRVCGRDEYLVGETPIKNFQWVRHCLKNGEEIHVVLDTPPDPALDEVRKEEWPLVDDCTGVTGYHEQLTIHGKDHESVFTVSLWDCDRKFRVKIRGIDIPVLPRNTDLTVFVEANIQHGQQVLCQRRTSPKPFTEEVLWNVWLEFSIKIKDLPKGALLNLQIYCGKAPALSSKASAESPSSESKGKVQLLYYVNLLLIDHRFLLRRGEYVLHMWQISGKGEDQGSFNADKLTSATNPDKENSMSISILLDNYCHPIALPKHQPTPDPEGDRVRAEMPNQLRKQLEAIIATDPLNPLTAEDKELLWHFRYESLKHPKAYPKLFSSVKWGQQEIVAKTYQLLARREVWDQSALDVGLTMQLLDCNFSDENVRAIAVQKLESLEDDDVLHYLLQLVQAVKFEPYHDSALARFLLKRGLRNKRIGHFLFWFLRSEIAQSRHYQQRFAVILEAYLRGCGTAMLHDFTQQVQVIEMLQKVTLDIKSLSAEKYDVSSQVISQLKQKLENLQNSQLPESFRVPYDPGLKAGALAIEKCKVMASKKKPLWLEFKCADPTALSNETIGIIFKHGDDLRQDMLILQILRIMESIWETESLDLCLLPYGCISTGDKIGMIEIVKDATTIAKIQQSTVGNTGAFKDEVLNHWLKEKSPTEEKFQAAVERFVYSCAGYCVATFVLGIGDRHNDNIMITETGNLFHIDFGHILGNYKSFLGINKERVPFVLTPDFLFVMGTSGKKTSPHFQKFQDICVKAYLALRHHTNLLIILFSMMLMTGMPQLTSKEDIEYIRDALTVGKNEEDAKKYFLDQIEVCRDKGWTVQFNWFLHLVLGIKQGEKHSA

The assay concerns the target PI3Kγ (p120γ) (Homo sapiens, UniProt P48736). As to the kind of experiment: Inhibition of PI3K isoforms: PI3Kγ. To be noted: read-out: PI3Kγ IC50; 10 nM enzyme, ATP 100 μM, 1 μM PIP2, 3 h room temperature.

The structures appear in SMILES notation. Structures can show the parent of a compound that is named as a salt. Bounds are passed on as bounds.

For the compound `O=C(Nc1nc(N2CCOCC2)c2oc3ncccc3c2n1)Oc1ccccc1` [Example 22, phenyl(4-morpholinopyrido[3′,2′:4,5]furo[3,2-d]pyrimidin-2-yl)carbamate hydrochloride], the IC50 was over 10 µM.
